Earlier results, collected in patent US20090203708A1, “NOVEL SUBSTITUTED-1-H-QUINAZOLINE-2,4-DIONE DERIVATIVES, PREPARATION METHOD THEREOF AND PHARMACEUTICAL COMPOSITION CONTAINING THE SAME” (Korea Research Institute of Chemical Technology, priority 2006, published 2009).

Protein sequences, listed by entry. Tags and fused reporters are not part of them.
UniProt P50406, whole entry: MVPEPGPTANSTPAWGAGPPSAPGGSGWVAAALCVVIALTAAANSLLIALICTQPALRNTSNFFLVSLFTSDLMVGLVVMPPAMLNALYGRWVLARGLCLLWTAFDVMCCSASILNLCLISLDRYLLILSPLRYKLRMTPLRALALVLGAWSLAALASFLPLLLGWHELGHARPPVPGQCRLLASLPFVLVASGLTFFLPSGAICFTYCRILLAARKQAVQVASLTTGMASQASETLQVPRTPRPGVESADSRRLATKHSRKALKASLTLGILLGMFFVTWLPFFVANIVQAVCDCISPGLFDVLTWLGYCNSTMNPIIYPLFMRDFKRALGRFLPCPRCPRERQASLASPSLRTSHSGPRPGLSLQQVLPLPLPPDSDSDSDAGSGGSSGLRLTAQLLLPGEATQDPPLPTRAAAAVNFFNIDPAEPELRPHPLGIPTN

Tests used:
[1] = biological target: 5-HT6 receptors (Homo sapiens, UniProt P50406); conditions: read-out: Ki for 5-HT6 receptors; literature; cited from earlier work
[2] = literature; cited from earlier work
[3] = system: other 5-HT receptors / other receptor/binding sites; conditions: literature; cited from earlier work

Which results are given for COc1ccc(NS(=O)(=O)c2ccc(Br)cc2)cc1N1CCN(C)CC1?
Ki [1]: 5 nM; bioavailability (in words) [2]: low bioavailability; brain penetration [2]: 25%; clearance (in words) [2]: rapid blood clearance; affinity for 50 other receptor/binding sites [3]: no measurable affinity; selectivity over 10 other 5-HT receptors [3]: ≥ 50 fold
